Laboratory results taken from patent publication US20230203003A1, “Notch Inhibitors and Uses Thereof” (StemSynergy Therapeutics, Inc., priority 2020, published 2023).

By UniProt entry, the sequences of proteins in these tests, tags left out. Residues count along the entry.
UniProt P46531, 1754-2555 limits assumed: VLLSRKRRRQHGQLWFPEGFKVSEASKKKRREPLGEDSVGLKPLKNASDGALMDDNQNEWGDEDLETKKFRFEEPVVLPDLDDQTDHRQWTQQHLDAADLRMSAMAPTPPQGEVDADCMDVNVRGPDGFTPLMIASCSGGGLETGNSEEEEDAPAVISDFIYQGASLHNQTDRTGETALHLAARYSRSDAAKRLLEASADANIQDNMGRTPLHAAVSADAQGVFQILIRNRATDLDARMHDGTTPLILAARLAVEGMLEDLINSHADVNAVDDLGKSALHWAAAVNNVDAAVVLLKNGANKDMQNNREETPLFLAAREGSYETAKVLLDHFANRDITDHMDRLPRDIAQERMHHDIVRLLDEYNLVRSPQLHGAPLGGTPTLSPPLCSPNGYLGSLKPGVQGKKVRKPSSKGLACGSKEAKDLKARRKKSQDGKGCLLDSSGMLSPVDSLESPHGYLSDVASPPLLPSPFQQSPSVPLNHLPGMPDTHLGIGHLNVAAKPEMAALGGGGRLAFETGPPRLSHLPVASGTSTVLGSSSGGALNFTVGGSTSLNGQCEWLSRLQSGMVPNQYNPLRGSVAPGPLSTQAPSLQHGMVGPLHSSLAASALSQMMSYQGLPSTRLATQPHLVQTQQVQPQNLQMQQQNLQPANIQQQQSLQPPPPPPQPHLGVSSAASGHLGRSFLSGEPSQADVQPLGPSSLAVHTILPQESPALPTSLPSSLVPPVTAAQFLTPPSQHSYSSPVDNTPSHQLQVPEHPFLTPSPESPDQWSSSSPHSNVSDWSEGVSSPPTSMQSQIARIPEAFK

Legend:
hNotch1ICD = hNotch1ICD (Homo sapiens, UniProt P46531); test: Notch1 Reporter Assay (Dox-inducible Notch1-ICD, CSL-responsive luciferase in 293A cells)
Description: 293A cells expressing 1) pCMV-Tet-On 3G, 2) pLV[Tet]-Puro-TRE3G>Notch1-ICD, 3) pLV[Tet]-Puro-TRE3G>Notch2-ICD, 4) pLV[Tet]-Puro-TRE3G>Notch3-ICD, and 5) pCSL-RElement-Luc were used. When Doxycycline is added, the Tet-ON gene activates expression of hNotch1ICD, which together with endogenous NTC components binds to CSL responsive elements (pCSL-RElement-Luc) and expresses luciferase. 1 ×× 10^4 cells are plated in 100 µL (96-well format). 24 h later, compounds (10 mM stock in DMSO) are diluted in DMSO to 200X, then added (5 ul into 1 mL) to cell culture media containing 50 ng/mL Dox. This is then added 1:1 to cells. Final DMSO = 0.25%, Dox = 25 ng/mL. After 24 h, media is discarded, and cells are lysed in passive lysis buffer (Promega). Cells are rocked at room temperature for 15 min and then lysate is divided for luciferase assay (Luciferase Assay System, Promega) and cell viability (CellTiter Glo 2.0, Promega). Raw luciferase is normalized to cell viability, and then scaled to DMSO wells. Results are analyzed and IC50′s are determined in GraphPad by nonlinear regression curve fitting (4 parameter) of dose response curves.

[1] = system: OE33 Esophageal Adenocarcinoma cell line; test: OE33 Colony Formation Assay; conditions: read-out: OE33 Colony Formation Assay EC50; OE33 cells, 200 cells/well, 7 days, CellTiter-Glo
[2] = read-out: Notch1 Reporter Assay IC50, 24 h, luciferase normalized to cell viability

Compound	IC50 (hNotch1ICD; [2])	IC50 (hNotch1ICD; read-out: Notch1 Reporter Assay IC50, 24 h, luciferase normalized to cell viability, tested form: formate)	EC50 [1]
CC(C)Cn1c(=O)c(C(=O)Nc2ccc(Cl)cn2)c(O)c2ccccc21	11.8 µM		
CC(C)Cn1c(=O)c(C(=O)Nc2cccc(N3CCN(C)CC3)c2)c(O)c2ccccc21		10.2 µM	
O=C(Nc1ncccc1O)c1c(O)c2c(n(Cc3ccco3)c1=O)CCCC2	12.8 µM		3.4 µM
CC(C)Cn1c(=O)c(C(=O)Nc2cccc(N3CCN(C)CC3)c2)c(O)c2ccccc21 [560(01)]	12.3 µM		2.3 µM
CC(C)Cn1c(=O)c(C(=O)Nc2cccc(N3CCN(C)CC3)c2)c(O)c2ccccc21 [560(02)]	7.7 µM		4.1 µM
CC(C)Cn1c(=O)c(C(=O)Nc2cccc(N3CCN(C)CC3)c2)c(O)c2ccccc21 [560(04)]	9 µM		2.3 µM

Where two headings read alike, the source gives them in different places.
